{"source": "patent US9820987B2", "about": "“Modulator compounds of drug resistance in epithelial tumor cells” (BIONSIL S.R.L. in Liquidazione, priority 2007, dated 2017)", "test_system": "HCT116p53KO cells", "test": "Short-term viability under targeted therapy with or without ibrutinib (MTT)", "format": "cell-based, human", "details": "25 μg/ml bevacizumab, 10 μg/ml cetuximab or 75 μg/ml panitumumab alone, 72 hr", "data": [{"substance": "cetuximab: monoclonal antibody used in anti-cancer therapy for targeting EGFR", "values": [{"measurement": "cell viability", "value": "does not affect"}]}]}
